Assay [1] has as its target T1, Aldo-keto reductase family 1 member C3 (Homo sapiens) (UniProt P42330).
T1 sequence (whole entry): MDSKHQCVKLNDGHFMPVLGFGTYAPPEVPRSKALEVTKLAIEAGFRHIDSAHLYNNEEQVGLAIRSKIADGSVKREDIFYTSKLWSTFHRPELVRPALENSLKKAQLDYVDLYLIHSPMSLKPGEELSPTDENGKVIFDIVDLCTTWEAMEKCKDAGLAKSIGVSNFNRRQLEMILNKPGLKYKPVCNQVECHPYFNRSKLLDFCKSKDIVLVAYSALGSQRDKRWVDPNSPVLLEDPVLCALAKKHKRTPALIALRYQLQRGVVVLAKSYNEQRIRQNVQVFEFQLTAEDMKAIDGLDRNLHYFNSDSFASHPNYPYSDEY
The following applies: LNCaP, 30 uM.

Assay [2] concerns the target T1, Aldo-keto reductase family 1 member C3 (Homo sapiens). The conditions noted are these: LNCaP, 30 uM. The source holds these as a separate data set.
The target is the same in assay [3]. The following applies: LNCaP, 30 uM. The source holds these as a separate data set.
The target in assay [4] is T2, Aldo-keto reductase family 1 member C3 (Homo sapiens, UniProt P42330).
T2 sequence (P42330 whole entry): T1 sequence (whole entry)
Kind of assay: Inhibition of human recombinant AKR1C3 using S-tetralol as substrate assessed as reduction in NADP+-dependent S-tetralol oxidation preincubated for 10 mins followed by protein addition by fluorometric assay.

pIC50: −log10 of the molar value. Activity calls are given as the source filed them. The rule behind the calls is not given here.

In the case of `CC[C@@H](C(=O)O)c1ccc2cc(OC)ccc2c1`, the inhibition entry in assay [1], in assay [2] and in assay [3] was “Active” throughout.

Broadly, the pIC50 is −log10 of the IC50, conventionally taken in molar units. Regarding `COc1ccc2cc([C@@H](C)C(=O)O)ccc2c1`, the pIC50 in assay [4] is 7.30.
